The values that follow come from publication PMC4551912, “Synthetic biosensors for precise gene control and real-time monitoring of metabolites” (Nucleic Acids Research, 2015).

The chains behind the UniProt entries cited, without tags or fusion partners. Where a name states a change or a piece, a line headed by the entry shows the natural chain unless it says otherwise.
UniProt Q9AIU0: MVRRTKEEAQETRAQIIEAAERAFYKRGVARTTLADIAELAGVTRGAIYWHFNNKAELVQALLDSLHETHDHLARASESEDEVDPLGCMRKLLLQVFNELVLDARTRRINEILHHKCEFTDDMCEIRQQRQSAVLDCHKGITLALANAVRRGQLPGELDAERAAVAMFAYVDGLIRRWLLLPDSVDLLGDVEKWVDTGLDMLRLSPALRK

The assay addresses TtgR (Pseudomonas putida, UniProt Q9AIU0). It counts as cell-based. The note with it: high-copy plasmid, LB, 37°C; extracellular inducer; induction (derepression); lumped parameter of uptake, DNA binding and Kd, not a pure affinity; read-out: Half maximal parameter.

Regarding `O=C1C[C@@H](c2ccc(O)cc2)Oc2cc(O)cc(O)c21` [naringenin], the EC50 is 550 ± 50 µM.
